Laboratory results taken from patent US20170119760A1 (AB SCIENCE, priority 2015, published 2017).

Key:
[1] = tested on: tyrosine hydroxylase expression; assay: MPTP mouse model: tyrosine hydroxylase western blotting of total brain protein extract; details: MPTP alone (4 × 20 mg/kg), solvent treated, control = 100
[2] = tested on: tyrosine hydroxylase expression; assay: MPTP mouse model: tyrosine hydroxylase ELISA assay of total brain protein extract; details: MPTP alone

SMILES: CN1CC=C(c2ccccc2)CC1 [MPTP, 1-methyl-4-phenyl-1,2,3,6-tetrahydropyridine, reference compound]
- Relative average expression of tyrosine hydroxylase [1]: 77
- tyrosine hydroxylase expression after MPTP treatment with respect to control [2]: significant decrease
